The text below walks through data of PMC10135263, “Comparison of Intravenous Microdialysis and Standard Plasma Sampling for Monitoring of Vancomycin and Meropenem Plasma Concentrations—An Experimental Porcine Study” (Antibiotics, 2023).

Data set [1] can be described thus: Pharmacokinetics from continuous intravenous microdialysis sampling (subclavian vein), free unbound concentrations. The settings on record: vancomycin 1 g iv infused over 100 min, co-administered with meropenem, eight female pigs, 30 mm membrane, 20 kD cut-off, 1 μL/min, UHPLC-MS/MS, recovery-corrected, mean (95% confidence interval).
The conditions of data set [2]: in vitro, human plasma mixed with fixed vancomycin concentrations, intravenous microdialysis sampling; cited from earlier work. The text has this:
For vancomycin, two studies, one in vitro and one in vivo, have evaluated the feasibility of intravenous microdialysis. The in vitro study used human plasma mixed with fixed vancomycin concentrations to evaluate the feasibility of intravenous microdialysis sampling. Compared to our study, they found a higher relative recovery (91% ± 3.7%), and concluded good feasibility, as a steady relative recovery was found. The apparent differences between the in vitro study design and the present porcine in vivo design may readily explain the different findings. The in vivo study conducted ...

For `CN[C@H](CC(C)C)C(=O)N[C@H]1C(=O)N[C@@H](CC(N)=O)C(=O)N[C@H]2C(=O)N[C@H]3C(=O)N[C@H](C(=O)N[C@H](C(=O)O)c4cc(O)cc(O)c4-c4cc3ccc4O)[C@H](O)c3ccc(c(Cl)c3)Oc3cc2cc(c3O[C@@H]2O[C@H](CO)[C@@H](O)[C@H](O)[C@H]2O[C@H]2C[C@](C)(N)[C@H](O)[C@H](C)O2)Oc2ccc(cc2Cl)[C@H]1O` [Vancomycin, vancomycin], the “AUC0–8h” value in data set [1] was 2874 (1639; 4109) min µg/mL. Further, in data set [2], the Relative recovery is 91% ± 3.7.
